Screening results as filed in PubChem BioAssay.
Rows were chosen to be rich in hits. Some 0.46% of all compounds tested hit in one or more screens of this group.
PKM2 activator = increases activity of human pyruvate kinase M2. P14618. 260,000 compounds, 0.34% hits. Potency, µM (series often up to 57.5 µM), hits mostly activators. purified PKM2, Kinase-Glo ATP luminescence, activation; response scale: 0% is enzyme alone, no compound; further: nearly all actives have a fitted effect of over 55% in size
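Purified hPK-M2 (>95%) run at intermediate activity with 0.1 mM ADP and 0.5 mM PEP in 50 mM imidazole pH 7.2, KCl, MgCl2; 1 h room temperature. ATP formed read by Kinase-Glo luminescence; normalized to uninhibited and no-enzyme controls.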
B2AR arrestin = beta2AR (human) beta-arrestin recruitment activity; P07550; beta-arrestin recruitment to beta2AR, cell-based reporter; Potency, µM (titrated, usually from 46.1 µM), usual class: activators; 330,000 compounds, 0.02% hits; further: nearly all actives have a fitted effect of over 65% in size
PINK1 expr mod = changes PINK1 expression | PINK1 immunofluorescence, high-content cytometry, 24 h | Potency, µM (titrated, usually from 76.6 µM), most hits filed as activators | 410,000 compounds, 0.2% hits; active means well fitted activation curve with a large enough effect; inconclusive means small, poorly fitted or top-dose-only effect; cell line not stated here; further: nearly all actives have a fitted effect of over 65% in size
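Stable cell line treated 24 h with compounds at 5 concentrations (CCCP controls), then fixed and immunostained for PINK1 plus nuclear and cell stains; PINK1 immunofluorescence quantified by laser-scanning microplate cytometry.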
BCR signal inh = blocks chronic active B-cell receptor signaling; Potency, µM (series often up to 46.1 µM), usual class: inhibitors; 340,000 compounds, 0.05% hits; ABC-DLBCL IkBa-CBG/CBR reporter, luminescence ratio, 4 h; active means well fitted inhibition curve with a large enough effect in the signal ratio, with a control signal flat, not every such curve was filed as active; inconclusive means small, poorly fitted or top-dose-only effect, or effect the other way, or a change in a side signal; the % refers to the signal ratio
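TMD8 human ABC-DLBCL cells with doxycycline-inducible IκBα–green luciferase fusion and unfused red luciferase, in 0.5% FBS medium; compounds up to 46 uM, 4 h at 37C. Green/red luminescence ratio, filter-overlap corrected, fitted to concentration-response curves.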
Pin1 inhibitor = human Pin1 inhibition | Q13526 | Pin1 FP peptide displacement, HiFluor488, 10 min | Potency, µM (titrated, usually from 115 µM), usual class: inhibitors | 390,000 compounds, 0.009% hits; active means well fitted inhibition curve with a large enough effect in the polarisation, with a control signal flat, not every such curve was filed as active; inconclusive means small, poorly fitted or top-dose-only effect, or effect the other way, or a change in a side signal; inactive means no such curve, though single readings can be large or run the other way; the % refers to the polarisation
miR-21 reporter = raises the signal of a miR-21 reporter | Potency, µM (highest dose often 38.3 µM) | HeLa miR-21 FLuc reporter, luciferase, 48 h | 340,000 tested, under 10 active; active = well fitted rising curve with a large enough effect; inconclusive = small, poorly fitted or top-dose-only effect; inactive = no such curve, though single readings can be large or run the other way;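 further: miR-21 action dims this reporter so a rising signal means less miR-21 action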
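HeLa cells stably expressing CMV-driven firefly luciferase with a downstream miR-21 binding sequence, endogenously expressing miR-21, were treated with titrations (up to about 40uM final) for 48 hours at 37 degree Celsius. Luciferase luminescence was read after lysis.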
Numbers stand for hits; i = inactive; ? = inconclusive; nt = no result. Unless noted, the call rests on the fitted dose curve; in most records, active means well fitted curve in the direction sought with a large enough effect; inconclusive means small, poorly fitted or top-dose-only effect, or another doubt; inactive means no such curve, though single readings can be large; an effect the other way counts as inactive or inconclusive.

SMILES	PKM2 activator	B2AR arrestin	PINK1 expr mod	BCR signal inh	Pin1 inhibitor	miR-21 reporter
CC(C)C[C@H](N)c1nnc(S(=O)(=O)Cc2ccc(F)cc2)o1	10µM	i	i	?	i	?
CC(C)C[C@H](N)c1nnc(SCc2ccc(Cl)cc2Cl)o1	nt	nt	i	nt	i	i
COc1ccc(C2Nc3ccccc3C(=O)N2Cc2ccccn2)cc1COc1ccc(NC(C)=O)cc1 (configuration not stated)	nt	nt	nt	nt	i	nt
NC(=O)C1CCN(c2nccc(-c3ccc(Br)cc3)n2)CC1	nt	nt	nt	nt	i	nt
Cc1ccn(S(=O)(=O)c2ccc3oc(=O)ccc3c2)n1	10µM	i	i	i	i	i
CC1(C)CC2(CCCN(CC(O)(c3ccccc3)c3ccccc3)C2)CCO1 (configuration not stated)	i	i	?	i	i	i
CCC1(C)CC2(CCCN(CCC(O)(c3ccccc3)c3ccccc3)C2)CCO1 (configuration not stated)	i	i	45µM	i	i	i
COc1ccc(-c2nn3c(C4CCCCC4)nnc3s2)cc1OC	i	i	i	14µM	?	i
COc1cc(-c2nn3c(C4CCCCC4)nnc3s2)cc(OC)c1OC	i	i	i	?	i	i
C=C(C)c1ccc(C(C)(C)NC(=O)N(Cc2ccccc2)Cc2ccco2)cc1	i	i	11µM	?	i	i
CCC1(C)Cc2c(sc3nnn(CC(=O)Nc4cccc5ccccc45)c(=O)c23)CO1 (configuration not stated)	i	i	?	?	i	i
CCC1(C)Cc2c(sc3nnn(CC(=O)Nc4ccc(C)cc4)c(=O)c23)CO1 (configuration not stated)	i	i	10µM	i	i	i
COc1ccccc1NC(=O)Nc1ccnn1C1CCCCC1	i	i	i	i	i	i
CCCCNC(=O)Nc1ccnn1C1CCCCC1	4µM	i	i	i	i	i
NS(=O)(=O)c1ccc(NC(=O)c2ccc3c(c2)CCCC3)cc1	nt	i	40µM	i	?	i
NS(=O)(=O)c1ccc(NC(=O)c2ccc3c(c2)OCO3)cc1	nt	i	i	?	i	i
Cc1cnc(C)c(-c2cc(F)cc3c2OC(CNC(=O)Cc2ccccc2C)C3)n1 (configuration not stated)	nt	nt	i	nt	nt	nt
Cc1cc(C(=O)NCc2nnc3n2CCN(Cc2ccc4c(c2)Cc2ccccc2-4)CC3)c(C)o1	nt	nt	i	nt	nt	nt
CC1CCCN(c2nc(-c3cccnc3)nc3scc(-c4ccccc4)c23)C1 (configuration not stated)	i	i	28µM	?	i	i
COc1cccc(C2(CC(=O)N3CCN(c4nonc4C)CC3)CC(=O)N(C3CCCC3)C2=O)c1 (configuration not stated)	nt	nt	i	nt	nt	nt
CC(/C=N/NC(=O)CSc1nc2ccccc2n1C)=C\c1ccco1	5µM	i	i	i	?	i
Cn1c(SCC(=O)N/N=C/c2ccco2)nc2ccccc21	i	i	i	i	i	i
Cc1cc(C(=O)NCc2nc(-c3ccccc3NC(=O)C3CCCO3)oc2C)nc(C)n1 (configuration not stated)	nt	nt	i	nt	nt	nt
Cc1ccn(CCC(=O)N2CCOc3ccc(C(O)C4CCCCC4)cc3C2)n1 (configuration not stated)	nt	nt	i	nt	nt	nt
C(=N\n1cnnc1)/c1cccn1-c1ccccc1	28µM	i	i	i	i	i
SMILES	PKM2 activator	B2AR arrestin	PINK1 expr mod	BCR signal inh	Pin1 inhibitor	miR-21 reporter
Cc1cc(/C=N/n2cnnc2)c(C)n1-c1ccccc1	i	i	i	i	i	i
COC(=O)C1CCN(Cc2ccc3c(c2)CN(C(=O)c2cc(-c4ccc(C)o4)[nH]n2)CCO3)CC1	nt	nt	i	nt	nt	nt
CCC1(C2CCN(Cc3ccc(C)s3)CC2)NC(=O)N(CC2COc3ccccc3O2)C1=O (configuration not stated)	nt	nt	i	nt	nt	nt
COc1ccc(C(=O)NCC2Cc3cc(C)cc(-c4cc(C(C)=O)ccc4F)c3O2)c(OC)c1OC (configuration not stated)	nt	nt	i	nt	nt	nt
COc1ccccc1CC(=O)Nc1ccc([N+](=O)[O-])cc1O	i	i	40µM	?	i	i
COc1ccccc1CC(=O)Nc1ccccc1O	i	i	i	i	i	i
